Measurements taken from patent US20110207751A1, “HETEROCYCLIC COMPOUNDS AND USES AS ANTICANCER AGENTS” (priority 2010, published 2011).

System: tubulin (colchicine-binding site)
Assay: Spin column assay with [^3H]colchicine
Settings: tubulin with [^3H]colchicine and unlabeled competitor, 37° C. 1 h
Experimental: Spin column assay. […] The reaction mixtures were incubated at 37° C. for 1 h. The samples were loaded onto Illustra™ MicroSpin™ G-50 columns (GE Healthcare) previously equilibrated with the buffer solution. The columns were placed into 1.5-ml tubes and spun at 750 g for 2 min at room temperature, and radioactivity in the flow-through was analyzed by a scintillation counter.

SMILES: COc1cc2c(c(OC)c1OC)-c1ccc(OC)c(=O)cc1[C@@H](NC(C)=O)CC2 [colchicine]
- amount of [^3H]colchicine in the flow-through: reduced the amount of [^3H]colchicine found in the flow-through in a concentration-dependent manner
